Experimental data reported in PubChem BioAssay AID1220 (Sanford-Burnham Center for Chemical Genomics, 2008).
The list shows a part of the results, in another mix than the full data. The source made the active and inactive calls. No stated cut-off is given here; in the data, active means inhibition above about 50%; inactive means the rest.

Sequences of proteins named here, by UniProt entry; tags and fusion partners are left off.
UniProt P34949, whole entry: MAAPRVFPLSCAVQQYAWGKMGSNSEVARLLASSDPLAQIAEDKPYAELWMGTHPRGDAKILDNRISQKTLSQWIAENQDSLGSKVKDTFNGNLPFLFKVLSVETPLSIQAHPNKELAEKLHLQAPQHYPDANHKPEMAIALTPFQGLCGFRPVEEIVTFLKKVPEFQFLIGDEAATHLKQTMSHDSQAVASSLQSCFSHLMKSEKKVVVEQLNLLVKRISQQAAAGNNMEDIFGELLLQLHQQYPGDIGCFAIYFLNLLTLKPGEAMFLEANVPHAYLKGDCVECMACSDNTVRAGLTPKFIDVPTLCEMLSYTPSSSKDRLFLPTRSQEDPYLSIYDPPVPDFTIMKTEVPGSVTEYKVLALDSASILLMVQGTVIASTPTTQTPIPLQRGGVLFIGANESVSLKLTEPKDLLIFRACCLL

Biological target: Mannose-6-phosphate isomerase (Homo sapiens) (UniProt P34949)
Test: MPI inhibition at elevated mannose 6-phosphate – biochemical, fluorescence intensity, high mannose 6-phosphate, primary screen (AID 1220)
Settings: recombinant PMI enzyme, coupled fluorescence intensity; at 20 µM; hits give high values

| Compound | inhibition |
| --- | --- |
| CP(=O)(Nc1ccc2c(c1)OCCO2)Oc1ccccc1 (configuration not stated) | inactive: -2.1% |
| Cc1ccccc1NP(C)(=O)Nc1ccccc1C | inactive: 3.5% |
| CCOP(C)(=S)SCC(=O)NC(C)(CC)C(=O)O (configuration not stated) | inactive: 16.4% |
| O=[N+]([O-])c1cc([N+](=O)[O-])c(NCC2CCS(=O)(=O)C2)c([N+](=O)[O-])c1 (configuration not stated) | inactive: 35.7% |
| COc1ccc(OP(C)(=O)Nc2cccc(Br)c2)cc1 (configuration not stated) | inactive: 0.9% |
| CN(C)CCOC(=O)C(O)(c1ccccc1)C1CCCCC1 (configuration not stated) | inactive: 4.1% |
| COc1ccc(NP(C)(=O)Oc2ccccc2OC)cc1 (configuration not stated) | inactive: -7.1% |
| CCN(CC)CCCOC(=O)C(O)(c1ccccc1)C1CCCCC1 (configuration not stated) | inactive: -18.2% |
| CP(=O)(Nc1ccccc1)Oc1ccc(F)cc1 (configuration not stated) | inactive: -9.7% |
| CCOC(=O)c1ccc(NP(C)(=O)Oc2ccc(F)cc2)cc1 (configuration not stated) | inactive: 0.7% |
| COc1ccc(OP(C)(=O)Nc2ccc(SC(F)(F)F)cc2)cc1 (configuration not stated) | inactive: -13.1% |
| O=C(OCCN1CCN(CCOCc2ccccc2)CC1)C(O)(c1ccccc1)c1ccccc1 | inactive: -26.9% |
| CP(=O)(Nc1ccccc1F)Oc1ccccc1 (configuration not stated) | inactive: 0.4% |
| CC(C)c1ccc(OP(C)(=O)Nc2ccc(SC(F)(F)F)cc2)cc1 (configuration not stated) | inactive: 18.9% |
| Cc1c(NP(C)(=O)Oc2ccc(C(C)C)cc2)c(=O)n(-c2ccccc2)n1C (configuration not stated) | inactive: -15.4% |
| COc1ccccc1OP(C)(=O)Nc1ccc(C)cc1C (configuration not stated) | inactive: 3.4% |
| CP(=O)(Nc1ccccn1)Oc1ccccc1 (configuration not stated) | inactive: 3.6% |
| CCc1ccc(OP(C)(=O)O)cc1 | inactive: 3.2% |
| COc1ccc(OP(C)(=O)Nc2ccccn2)cc1 (configuration not stated) | inactive: 5.6% |
| CN(C)CCOC(=O)C(O)(c1ccccc1)C1CCCC1 (configuration not stated) | inactive: -6.1% |
| CP(=O)(OCCOc1ccccc1)OCCOc1ccccc1 | inactive: 12.3% |
| CP(=O)(Nc1ccc(Cl)cc1Cl)Oc1ccccc1 (configuration not stated) | inactive: -1.2% |
| Cc1cc(C)cc(OP(C)(=O)Nc2cccc(C(F)(F)F)c2)c1 (configuration not stated) | inactive: 12.1% |

| Compound | inhibition |
| --- | --- |
| COc1ccccc1OP(C)(=O)Nc1ccc(C)c(C)c1 (configuration not stated) | inactive: -2.7% |
| COc1ccc(OP(C)(=O)Nc2ccccc2Br)cc1 (configuration not stated) | inactive: -5.7% |
| CCOC(=O)c1ccc(NP(C)(=O)Oc2ccc(Cl)cc2)cc1 (configuration not stated) | inactive: -3.9% |
| CP(=O)(OC12CC3CC(CC(C3)C1)C2)OC12CC3CC(CC(C3)C1)C2 | inactive: -2.6% |
| CC(C)(C)c1ccc(OP(C)(=O)O)cc1 | inactive: -4.8% |
| COc1ccccc1OP(C)(=O)Nc1ccccc1Br (configuration not stated) | inactive: -7.8% |
| CP(=O)(Nc1ccc(Cl)cc1)Oc1ccc(F)cc1 (configuration not stated) | inactive: -3.2% |
| CN(C)C(=O)c1c([N+](=O)[O-])cc([N+](=O)[O-])cc1[N+](=O)[O-] | active: 53.4% |
| COc1ccc(OP(C)(=O)Nc2ccc(Br)cc2)cc1 (configuration not stated) | inactive: 11.3% |
| CCN(CC)CC(O)COC(=O)C(O)(c1ccccc1)C1CCCCC1 (configuration not stated) | inactive: -2.3% |
| COc1ccccc1OP(C)(=O)Nc1c(C)n(C)n(-c2ccccc2)c1=O (configuration not stated) | inactive: 7.3% |
| CCc1ccc(OP(C)(=O)Nc2cccnc2)cc1 (configuration not stated) | inactive: -1.4% |
| CP(=O)(Oc1ccccc1)N1CCOC1=O (configuration not stated) | inactive: 3.7% |
| CCOC(=O)c1ccc(NP(C)(=O)Oc2ccc(OC)cc2)cc1 (configuration not stated) | inactive: -9.5% |
| CCOP(C)(=S)SCC(=O)NC(C)C(=O)O (configuration not stated) | inactive: 9.6% |
| CP(=O)(Nc1ccccn1)Oc1ccc(Cl)cc1 (configuration not stated) | inactive: -3.3% |
| CP(=O)(Oc1ccccc1)OC(c1ccccc1)C(F)(F)F (configuration not stated) | inactive: 0.1% |
| Cc1cccc(C)c1OP(C)(=O)Nc1ccc(SC(F)(F)F)cc1 (configuration not stated) | inactive: 25.3% |
| Cc1cc(C)cc(OP(C)(=O)Nc2ccc(SC(F)(F)F)cc2)c1 (configuration not stated) | inactive: 15.5% |
| CP(=O)(NC(=O)Nc1ccccc1)Oc1ccccc1 (configuration not stated) | inactive: -1.8% |
| CP(=S)(Nn1cnnc1)Oc1ccccc1 (configuration not stated) | inactive: 9.7% |
| CP(=O)(Nc1ccccc1Br)Oc1ccccc1 (configuration not stated) | inactive: 3.3% |
| COc1ccccc1OP(C)(=O)Nc1ccccc1 (configuration not stated) | inactive: 0.7% |

| Compound | inhibition |
| --- | --- |
| Cc1ccc(NP(C)(=O)Oc2ccccc2)c(C)c1 (configuration not stated) | inactive: -7.5% |
| COc1ccccc1OP(C)(=O)Nc1ccc(C)cc1 (configuration not stated) | inactive: 9.4% |
| CCOC(=O)c1ccc(NP(C)(=O)Oc2ccccc2)cc1 (configuration not stated) | inactive: 6.3% |
| Cc1cc(C)cc(OP(C)(N)=O)c1 (configuration not stated) | inactive: 8.5% |
| COc1ccc(OP(C)(=O)Nc2cccc(F)c2)cc1 (configuration not stated) | inactive: 2.6% |
| COc1ccccc1OP(C)(=O)Nc1cc(Cl)ccc1C (configuration not stated) | inactive: 4.5% |
| Cc1cccc(C)c1OP(C)(N)=O (configuration not stated) | inactive: -35% |
| CC(C)(C)c1ccc(OP(C)(=O)Nc2ccc(SC(F)(F)F)cc2)cc1 (configuration not stated) | inactive: 12.2% |
| CCN(CC)CCCOC(=O)C(O)(c1ccccc1)c1ccccc1 | inactive: -3.7% |
| Cc1ccc(C)c(NP(C)(=O)Oc2ccccc2)c1 (configuration not stated) | inactive: -0.2% |
| CP(=O)(Nc1cccc(Br)c1)Oc1ccccc1 (configuration not stated) | inactive: 7.9% |
| Cc1cc(C)cc(OP(C)(=O)Nc2ccccn2)c1 (configuration not stated) | inactive: 6.5% |
| CCOC(=O)c1ccc(NP(C)(=O)Oc2cc(C)cc(C)c2)cc1 (configuration not stated) | inactive: 4.6% |
| Cc1cc(C)cc(OP(C)(=O)Nc2ccc(C)cc2C)c1 (configuration not stated) | inactive: 3.1% |
| CC1=NCCc2c1[nH]c1ccccc21.O=[N+]([O-])c1cc([N+](=O)[O-])c(O)c([N+](=O)[O-])c1 | inactive: -2.2% |
| COc1ccccc1OP(C)(=O)Nc1c(C)cccc1C (configuration not stated) | inactive: -5.9% |
| CN1CCCCC1COC(=O)C1(O)c2ccccc2CCc2ccccc21 (configuration not stated) | inactive: 15.3% |
| CP(=O)(Nc1ccc(SC(F)(F)F)cc1)Oc1ccccc1 (configuration not stated) | inactive: 2.9% |
| CCCOc1ccc(NP(C)(=O)Oc2ccc(Cl)cc2)cc1 (configuration not stated) | inactive: 2.1% |
| Cc1nc2ccc3ccccc3c2s1.O=[N+]([O-])c1cc([N+](=O)[O-])c(O)c([N+](=O)[O-])c1 | inactive: 20% |
| O=[N+]([O-])c1cc([N+](=O)[O-])c(-n2nnc3ccccc32)c([N+](=O)[O-])c1 | inactive: 3.4% |
